Experimental data published in ChEMBL document CHEMBL1124741, “Probes for narcotic receptor mediated phenomena. 17. Synthesis and evaluation of a series of trans-3,4-dichloro-N-methyl-N-[2-(1-pyrrolidinyl)cyclohexyl]benzeneacet amide (U50,488) related isothiocyanate derivatives as opioid receptor affinity ligands” (1990).

Protein sequences, listed by entry. Tags and fused reporters are not part of them. Lines headed by an entry give the natural chain unless they say otherwise; changes in a name come on top.
UniProt P41144: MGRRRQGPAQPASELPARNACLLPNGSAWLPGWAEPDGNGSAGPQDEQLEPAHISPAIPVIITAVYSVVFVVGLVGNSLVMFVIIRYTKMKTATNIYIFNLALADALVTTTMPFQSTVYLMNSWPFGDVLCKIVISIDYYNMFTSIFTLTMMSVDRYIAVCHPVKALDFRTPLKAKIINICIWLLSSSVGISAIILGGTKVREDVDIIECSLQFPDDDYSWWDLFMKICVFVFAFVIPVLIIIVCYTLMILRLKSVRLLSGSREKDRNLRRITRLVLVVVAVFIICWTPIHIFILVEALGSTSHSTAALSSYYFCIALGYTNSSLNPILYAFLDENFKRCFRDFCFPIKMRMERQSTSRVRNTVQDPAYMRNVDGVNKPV
UniProt P33533, whole entry, looked up: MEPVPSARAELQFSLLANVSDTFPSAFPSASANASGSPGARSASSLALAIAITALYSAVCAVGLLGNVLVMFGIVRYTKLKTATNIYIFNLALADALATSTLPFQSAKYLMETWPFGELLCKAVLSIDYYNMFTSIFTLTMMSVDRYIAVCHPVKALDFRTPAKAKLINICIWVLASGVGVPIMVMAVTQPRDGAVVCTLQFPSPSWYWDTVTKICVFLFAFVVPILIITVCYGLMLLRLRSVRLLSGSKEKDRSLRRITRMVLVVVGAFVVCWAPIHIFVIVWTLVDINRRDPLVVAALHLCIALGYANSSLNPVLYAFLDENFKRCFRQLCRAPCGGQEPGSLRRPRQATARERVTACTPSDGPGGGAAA
UniProt P33535, whole entry, looked up: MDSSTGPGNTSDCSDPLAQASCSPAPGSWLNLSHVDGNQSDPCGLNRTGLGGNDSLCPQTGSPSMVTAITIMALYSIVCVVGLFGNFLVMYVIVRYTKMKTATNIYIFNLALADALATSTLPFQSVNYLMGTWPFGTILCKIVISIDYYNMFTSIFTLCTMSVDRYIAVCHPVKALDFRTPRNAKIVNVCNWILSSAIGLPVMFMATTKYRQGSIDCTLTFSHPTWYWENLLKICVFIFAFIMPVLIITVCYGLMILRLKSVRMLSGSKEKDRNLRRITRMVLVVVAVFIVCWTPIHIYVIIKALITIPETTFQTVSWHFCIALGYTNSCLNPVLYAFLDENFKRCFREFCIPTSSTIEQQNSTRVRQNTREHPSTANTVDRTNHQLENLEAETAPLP
UniProt P34975: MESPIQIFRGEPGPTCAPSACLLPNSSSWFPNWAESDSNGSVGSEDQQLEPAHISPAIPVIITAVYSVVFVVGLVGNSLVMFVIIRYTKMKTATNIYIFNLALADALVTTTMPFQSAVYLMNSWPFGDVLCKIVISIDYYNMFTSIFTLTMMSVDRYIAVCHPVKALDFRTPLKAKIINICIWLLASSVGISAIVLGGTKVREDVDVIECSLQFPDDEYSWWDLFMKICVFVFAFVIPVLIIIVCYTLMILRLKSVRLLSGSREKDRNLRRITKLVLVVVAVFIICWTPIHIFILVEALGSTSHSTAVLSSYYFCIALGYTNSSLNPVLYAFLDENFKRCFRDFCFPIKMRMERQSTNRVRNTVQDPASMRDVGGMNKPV

Legend:
Conditions in all cases: concentration not given here
[1] = target: Kappa-type opioid receptor (Cavia porcellus) (UniProt P41144); experiment: In vitro inhibition of [3H]U-69593 binding to Opioid receptor kappa 1 of guinea pig brain.
[2] = target: Delta-type opioid receptor (Rattus norvegicus) (UniProt P33533); experiment: In vitro inhibitory activity against Opioid receptor delta 1 of rat brain membrane using [3H]DADLE as radioligand.
[3] = target: Kappa-type opioid receptor (Cavia porcellus) (UniProt P41144); experiment: In vitro inhibitory activity against Opioid receptor kappa 1 of guinea pig brain using [3H]-BREM as radioligand
[4] = target: Mu-type opioid receptor (Rattus norvegicus) (UniProt P33535); experiment: In vitro inhibitory activity against Opioid receptor mu 1 of rat brain membrane using [3H]FOXY as radioligand.
[5] = target: Kappa-type opioid receptor (Rattus norvegicus) (UniProt P34975); experiment: In vitro inhibitory activity against Opioid receptor kappa 1 of rat brain membrane using [3H]BREM as radioligand.

| Structure (SMILES) | inhibition [1] [%] | inhibition [2] [%] | inhibition [3] [%] | inhibition [4] [%] | inhibition [5] [%] |
| --- | --- | --- | --- | --- | --- |
| CN(C(=O)[C@H](N=C=S)c1ccccc1)[C@H]1CCCC[C@@H]1N1CCCC1 | 106 | 94.6 | 99.7 | 112 | 95.4 |
| CN(C(=O)[C@H](N=C=S)c1ccccc1)[C@@H]1CCCC[C@H]1N1CCCC1 | 108 | 117 | 101 | < 132 | 92.7 |
| CN(C(=O)[C@@H](N=C=S)c1ccccc1)[C@@H]1CCCC[C@H]1N1CCCC1 | < 119 | 102 | 94.2 | 86 | 95.5 |
| CN(C(=O)[C@@H](N=C=S)c1ccccc1)[C@H]1CCCC[C@@H]1N1CCCC1 | < 72.2 | 91.6 | 96 | 108 | 91.2 |
